Laboratory results: paper PMC9158284, “N-terminally truncated Aβ4-x proteoforms and their relevance for Alzheimer’s pathophysiology” (Translational Neurodegeneration, 2022)

Assays:
[1] = parameters: species or system C57BL/6 mice; conditions: mouse, in vivo
Experimental: One hundred micrograms of either full-length or truncated Aβ species in both monomeric and oligomeric forms were radiolabeled using 1,3,4,6-tetrachloro-3α-6α-diphenylglycoluril pre-coated tubes (Iodogen, ThermoFisher Scientific/Pierce, Waltham, MA) and Na^125I (1 mCi, PerkinElmer, Waltham, MA), following the manufacturer’s specifications. All radiolabeling procedures were carried out for 20 min in a Standalone Radioiodine IH-350 hood (Atlantic Nuclear, Rockland, MA). Following removal of free Iodine using a desalting polyacrylamide column (D-salt, cut off 1.8 kDa, Pierce), radioactivity of labeled Aβ was assessed in a Perkin Elmer 1470 automated gamma counter (Perkin Elmer, Waltham, MA). Under these experimental conditions, [^125I] incorporation rendered specific activities in the range of 3–5 µCi/µg with > 98% TCA precipitable counts. […]
C57BL/6 mice (Taconic Biosciences, Hudson, NY) were intracerebrally injected with the different Aβ preparations following institutionally approved IACUC protocols, essentially as previously reported by our laboratory. […] Radioactivity remaining in the whole brain was assessed in the Perkin Elmer 1470 γ-counter.

[2] = Thioflavin T binding assay; assay type: physicochemical; conditions: after 24-h incubation at 37 °C under physiological salt concentrations; 50 mM Tris–HCl pH 8.5; ex 435 / em 490 nm; three independent experiments
Experimental: Aggregation of the different Aβ homologues was also monitored by Thioflavin T binding, following previously described protocols. Briefly, 6 μl aliquots from each peptide aggregation time point were added to 184 μl of 50 mM Tris–HCl buffer, pH 8.5, and 10 µl of 0.1 mM thioflavin T (Sigma). Fluorescence was recorded for 300 s in an LS-50B spectrometer (Perkin Elmer, Waltham, MA) with a slit width of 10 nm and excitation and emission wavelengths of 435 and 490 nm, respectively.

[3] = Electron microscopy after negative staining; assay type: physicochemical; conditions: 24-h incubation/oligomerization
Excerpt: Peptide oligomerization was also monitored by electron microscopy, as previously described. Five microliters of either monomeric or oligomeric preparations of the different Aβ peptides were placed onto carbon-coated 400 mesh Cu/Rh grids (Ted Pella, Inc., Redding, CA) and stained with 1% uranyl acetate in distilled water (Polysciences, Inc., Warrington, PA). The stained grids were examined in a Philips CM-12 transmission electron microscope and photographed with a Gatan (4 k × 2.7 k) digital camera at the Image Core Facility of the Skirball Institute of Biomedical Medicine, NYU School of Medicine, as described.

[4] = Autoradiography after SDS-polyacrylamide gel electrophoresis of [125I]-labeled Aβ preparations; assay type: physicochemical; conditions: [125I]-labeled 24-h incubated preparations, 16.5% SDS–polyacrylamide gel
Experimental: One hundred micrograms of either full-length or truncated Aβ species in both monomeric and oligomeric forms were radiolabeled using 1,3,4,6-tetrachloro-3α-6α-diphenylglycoluril pre-coated tubes (Iodogen, ThermoFisher Scientific/Pierce, Waltham, MA) and Na^125I (1 mCi, PerkinElmer, Waltham, MA), following the manufacturer’s specifications. All radiolabeling procedures were carried out for 20 min in a Standalone Radioiodine IH-350 hood (Atlantic Nuclear, Rockland, MA). Following removal of free Iodine using a desalting polyacrylamide column (D-salt, cut off 1.8 kDa, Pierce), radioactivity of labeled Aβ was assessed in a Perkin Elmer 1470 automated gamma counter (Perkin Elmer, Waltham, MA). Under these experimental conditions, [^125I] incorporation rendered specific activities in the range of 3–5 µCi/µg with > 98% TCA precipitable counts. Aggregation status of the [^125I]-labeled Aβ monomeric and oligomeric species was analyzed by autoradiography following 16.5% SDS–polyacrylamide gel electrophoresis and subsequent direct exposure to HyBlot CL film (Denville Scientific Inc., South Plainfield, NJ), as we previously described. If not immediately used for the clearance experiments, [^125I]Aβ oligomeric peptides were stored at -80 °C and used within a week to prevent further oligomerization and minimize radiolysis.

[5] = after 24-h incubation at 37 °C, 50 μM in 10 mM phosphate buffer pH 7.4, 150 mM NaF; mean of 15 scans

Aβ4-42: Synthetic homologue of Aβ1-42 N-terminally truncated at Phe4
Brain clearance, percentage cleared relative to the total injected radioactivity, oligomeric (24-h incubated) preparation [1]: 43% ± 3% | Thioflavin T binding (fluorescence) of oligomerized peptides [2]: highest thioflavin T binding | Protofibrillar assemblies after the aggregation procedure, length (electron microscopy) [3]: ≤ 150 nm | SDS-resistant oligomeric species of 24-h incubated preparations [4]: from tetramers to dodecamers | Secondary structure by CD upon oligomerization [5]: dominant conformation
